Molecular target: 21480B
Assay: Octet

B1: PD-1 (15593) (receptor)
chain: LDSPDRPWNPPTFSPALLVVTEGDNATFTCSFSNTSESFVLNWYRMSPSNQTDKLAAFPEDRSQPGQDCRFRVTQLPNGRDFHMSVVRARRNDSGTYLCGAISLAPKAQIKESLRAELRVTERRAEVPTAHPSPSPRPAGQFQ
Kd: 1.91 nM

From patent US20190389933A1 (published 2019)
